Measurements published in ChEMBL document CHEMBL5537130, “Structure-based design of potent FABP4 inhibitors with high selectivity against FABP3” (Eur J Med Chem, 2024).

How the values were obtained:
in vitro [1] = conditions: human, liver microsomes
in vitro [2] = conditions: mouse, liver microsomes
in vitro [3] = conditions: human, liver microsomes; remark: listed apart in the source
in vitro [4] = conditions: mouse, liver microsomes; remark: listed apart in the source

half-life at 1 h, 1 µM (in vitro [1]) [h]	half-life at 1 h, 1 µM (in vitro [2]) [h]	Fh at 1 h, 1 µM (in vitro [3]) [%]	Fh at 1 h, 1 µM (in vitro [4]) [%]	SMILES
2.75	2.18	60.6	73.4	Cc1cccc(Nc2cccc(Cl)c2-c2ccccc2)c1C(=O)O
0.395	2.63	18.1	76.9	Cc1cccc(Nc2cccc(Cl)c2-c2ccc3c(c2)CCO3)c1C(=O)O
